From BindingDB's records for doi:10.1074/jbc.M110.206193 (Takeda Pharmaceutical, 2011)

Sequences of proteins named here, by UniProt entry; tags and fusion partners are left off.
UniProt P04626, whole entry: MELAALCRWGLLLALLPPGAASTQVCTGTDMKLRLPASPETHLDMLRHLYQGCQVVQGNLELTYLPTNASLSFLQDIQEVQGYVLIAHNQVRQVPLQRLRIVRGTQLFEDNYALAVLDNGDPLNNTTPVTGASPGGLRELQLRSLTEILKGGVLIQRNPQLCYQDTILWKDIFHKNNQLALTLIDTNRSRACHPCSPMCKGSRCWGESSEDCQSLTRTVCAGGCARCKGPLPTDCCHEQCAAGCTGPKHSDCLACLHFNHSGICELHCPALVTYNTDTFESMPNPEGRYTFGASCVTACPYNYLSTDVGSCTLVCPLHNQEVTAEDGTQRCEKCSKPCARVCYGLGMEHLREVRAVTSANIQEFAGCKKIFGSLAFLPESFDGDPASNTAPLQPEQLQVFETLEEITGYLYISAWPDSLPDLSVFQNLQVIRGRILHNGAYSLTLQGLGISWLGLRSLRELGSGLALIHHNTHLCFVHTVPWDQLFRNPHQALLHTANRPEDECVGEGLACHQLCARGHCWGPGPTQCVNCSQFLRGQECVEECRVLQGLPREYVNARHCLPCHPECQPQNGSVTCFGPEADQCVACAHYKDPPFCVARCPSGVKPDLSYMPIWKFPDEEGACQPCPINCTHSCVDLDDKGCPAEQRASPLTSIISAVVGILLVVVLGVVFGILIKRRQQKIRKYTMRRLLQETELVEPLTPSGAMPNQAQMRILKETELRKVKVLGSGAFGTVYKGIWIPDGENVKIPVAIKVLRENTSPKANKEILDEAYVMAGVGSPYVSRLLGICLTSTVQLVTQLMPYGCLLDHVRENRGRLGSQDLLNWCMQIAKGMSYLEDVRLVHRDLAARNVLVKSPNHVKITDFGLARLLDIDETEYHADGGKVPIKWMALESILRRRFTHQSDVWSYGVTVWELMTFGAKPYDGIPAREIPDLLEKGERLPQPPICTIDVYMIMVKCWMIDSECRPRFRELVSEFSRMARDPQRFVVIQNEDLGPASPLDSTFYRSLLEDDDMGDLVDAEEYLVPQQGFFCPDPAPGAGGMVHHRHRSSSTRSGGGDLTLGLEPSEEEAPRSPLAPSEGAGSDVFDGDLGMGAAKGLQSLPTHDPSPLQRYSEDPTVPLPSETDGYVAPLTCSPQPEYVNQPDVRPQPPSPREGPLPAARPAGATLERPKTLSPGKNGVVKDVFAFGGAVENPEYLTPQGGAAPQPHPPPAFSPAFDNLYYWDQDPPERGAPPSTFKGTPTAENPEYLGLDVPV

Biological target: Receptor tyrosine-protein kinase erbB-2 (Homo sapiens, UniProt P04626)
Test: Enzyme Assay
Conditions: pH 7.5
Description: The EGFR, HER2 and HER4 kinase assay were performed using radiolabeled [gamma-32P] ATP from GE Healthcare.

- IC50: 11 nM
SMILES: OCCOCn1ccc2ncnc(Nc3cnc(Oc4cccc(C(F)(F)F)c4)c(Cl)c3)c21 [SYR127063]
